The experiment has as its target T1, ROCK2 (Homo sapiens, UniProt O75116).
T1 construct: purchased Upstate/Chemicon 14-451
Nature of the experiment: Rho kinase inhibition assay (IMAP fluorescence polarization), ROCK2. In kind it is biochemical. The settings on record: 10 μM ATP, 60 min at room temperature. Here is the method: Inhibition of ROCK2 and ROCK1 activity was determined using the IMAP™ Screening Express Kit (Molecular Devices product number #8073). ROCK2 enzyme (Upstate/Chemicon #14-451), ROCK1 (Upstate/Chemicon #14-601) and Fluorescein tagged substrate peptide Fl-[…] (Molecular Devices product number R7184) was pre-incubated with a test compound for 5 minutes in buffer containing 10 mM Tris-HCl pH 7.2, 10 mM MgCl2, and 0.1% BSA. Following the pre-incubation, 10 μM ATP was added to initiate the reaction. After 60 minutes at room temperature, Molecular Devices IMAP™ binding solution was added to bind phosphorylated substrate. After 30 minutes of incubation in the presence of the IMAP™ beads, the fluorescence polarization was read and the ratio was reported as mP. IC50 values for compounds and EC50 values for ATP were calculated using the Prism software from Graphpad, and the results are summarized in Table 1.
See Tian et al., Arch. Ophthalmol. […] Ophthalmol. Vis. Sci. 40: 239-242, 1999; Tian, et al., Exp. Eye Res. 68: 649-655; 1999; Sabanay, et al., Arch. Ophthalmol. […] Cytoskel. 29: 321-338, 1994; Tian, et al., Exp. Eye Res. 71: 551-566, 2000; Tokushige, et al., Invest. Ophthalmol. Vis. Sci. 48: 3216-3222, 2007; Honjo, et al., Invest. Ophthalmol. Vis.
For orientation: Polarisation of emitted light reports the rotation of a fluorescent probe.

The chains behind the UniProt entries cited, without tags or fusion partners. Where a name states a change or a piece, a line headed by the entry shows the natural chain unless it says otherwise.
UniProt O75116: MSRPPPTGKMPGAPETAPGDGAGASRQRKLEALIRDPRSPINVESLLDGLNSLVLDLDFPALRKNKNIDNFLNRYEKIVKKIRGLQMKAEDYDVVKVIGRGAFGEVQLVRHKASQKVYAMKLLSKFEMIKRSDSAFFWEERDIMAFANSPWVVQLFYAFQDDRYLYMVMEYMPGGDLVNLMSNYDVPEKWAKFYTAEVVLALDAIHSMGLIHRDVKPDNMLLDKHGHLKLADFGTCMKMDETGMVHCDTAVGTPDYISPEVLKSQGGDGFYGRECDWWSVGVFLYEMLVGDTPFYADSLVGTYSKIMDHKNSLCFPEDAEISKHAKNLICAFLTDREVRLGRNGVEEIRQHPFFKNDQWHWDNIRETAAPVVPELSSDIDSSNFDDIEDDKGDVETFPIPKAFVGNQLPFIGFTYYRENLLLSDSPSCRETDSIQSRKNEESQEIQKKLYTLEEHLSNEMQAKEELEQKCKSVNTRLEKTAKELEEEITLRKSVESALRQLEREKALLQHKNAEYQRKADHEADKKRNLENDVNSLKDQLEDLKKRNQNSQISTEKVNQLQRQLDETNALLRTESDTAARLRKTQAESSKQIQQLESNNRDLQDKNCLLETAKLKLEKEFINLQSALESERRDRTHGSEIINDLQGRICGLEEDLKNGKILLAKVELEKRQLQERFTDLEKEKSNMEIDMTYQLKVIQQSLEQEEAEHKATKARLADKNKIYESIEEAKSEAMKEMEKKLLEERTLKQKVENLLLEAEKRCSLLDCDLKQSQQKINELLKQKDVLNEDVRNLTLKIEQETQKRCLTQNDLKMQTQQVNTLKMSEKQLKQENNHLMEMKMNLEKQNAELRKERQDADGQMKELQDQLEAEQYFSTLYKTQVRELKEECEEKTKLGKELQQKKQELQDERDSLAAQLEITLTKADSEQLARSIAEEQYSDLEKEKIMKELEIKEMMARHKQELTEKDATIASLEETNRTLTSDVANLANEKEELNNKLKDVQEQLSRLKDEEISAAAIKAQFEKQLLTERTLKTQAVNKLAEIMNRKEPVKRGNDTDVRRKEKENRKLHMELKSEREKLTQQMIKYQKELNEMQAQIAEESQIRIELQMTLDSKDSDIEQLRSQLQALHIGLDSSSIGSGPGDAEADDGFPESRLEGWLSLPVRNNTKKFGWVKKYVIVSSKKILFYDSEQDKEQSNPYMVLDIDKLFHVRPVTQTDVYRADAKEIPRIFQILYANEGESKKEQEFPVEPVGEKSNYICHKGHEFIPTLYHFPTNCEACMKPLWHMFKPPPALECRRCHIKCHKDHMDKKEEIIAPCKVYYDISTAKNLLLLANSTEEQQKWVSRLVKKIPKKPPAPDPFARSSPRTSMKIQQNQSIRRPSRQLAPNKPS

Take `Cc1ccc(CN2CC[C@@H](Nc3cccc4cnccc34)C2)cc1OCCO` [Compound 49, [2-(5-(((R)-3-(isoquinolin-5-ylamino)pyrrolidin-1-yl)methyl)-2-methylphenoxy)]ethanol]: the IC50 (commonly the concentration needed to halve the response being measured) amounted to 2.2 nM. That is a single-digit nanomolar value.

(Values after patent publication US20130131059A1, “METHOD FOR TREATING OPHTHALMIC DISEASES USING KINASE INHIBITOR COMPOUNDS IN PRODRUG FORMS” (INSPIRE PHARMACEUTICALS, INC., priority 2010, published 2013).)
